# In PubChem BioAssay AID940 (Emory University Molecular Libraries Screening Center, 2007):
# The chains behind the UniProt entries cited, without tags or fusion partners. Where a name states a change or a piece, a line headed by the entry shows the natural chain unless it says otherwise.
# UniProt P43116: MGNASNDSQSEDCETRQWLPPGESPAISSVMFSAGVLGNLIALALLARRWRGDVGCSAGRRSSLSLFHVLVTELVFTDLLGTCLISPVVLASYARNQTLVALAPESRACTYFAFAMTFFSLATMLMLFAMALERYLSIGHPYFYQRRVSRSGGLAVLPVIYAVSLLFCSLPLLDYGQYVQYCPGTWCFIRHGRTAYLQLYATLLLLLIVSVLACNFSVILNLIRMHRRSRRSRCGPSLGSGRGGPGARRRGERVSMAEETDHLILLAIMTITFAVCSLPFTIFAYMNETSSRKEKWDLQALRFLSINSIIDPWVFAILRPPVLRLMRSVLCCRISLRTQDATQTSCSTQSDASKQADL
# Values joined by “and” are separate entries in the source; they are usually repeats but may differ in a detail not shown here. Identical values can stand only once. This is a selection; strong and weak results do not stand in their true shares. Active and inactive are the calls of the source.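 Rule for the calls: active = compounds whose cAMP rise, as percent of the full-agonist control response, exceeds 60; inactive = the rest.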
# Biological target: Prostaglandin E2 receptor EP2 subtype (Homo sapiens) (UniProt P43116)
# Test: EP2 receptor modulators, cAMP readout, primary screen, cell-based, HTRF cAMP, PGE2 stimulation (AID 940);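 note: rat C6 glioma line stably carrying human EP2 under a CMV promoter; the protocol text gives 20 µM as final concentration; 100% = response of wells given 1 µM PGE2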
# Details: EP2-expressing cells, cAMP HTRF FRET, PGE2 co-stimulation; at 25 µM; stronger effect = higher value
row,SMILES,induction
1,CC1CCC(C(C)C)C(OP(=O)(Nc2ccccn2)c2ccccc2)C1 (stereo not drawn),inactive: 31.8%
2,Cc1nn(-c2ccccc2)c2c1P(=O)(N1CCOCC1)N(C)C(c1ccccc1)=N2 (stereo not drawn),inactive: 16.9%
3,O=C(/C=C/c1ccccc1)OC1CN2CCC1CC2 (stereo not drawn),inactive: -5.39%
4,CN(C)C1(CNC(=O)c2ccc(S(C)(=O)=O)cc2)CCCCC1,inactive: -19.2%
5,O=P1(Nc2ncccn2)COc2ccccc2OC1,inactive: 11.5%
6,O=[As](O)(c1cccs1)c1cccs1,inactive: 9.96%
7,Cc1ccc(OCC(=O)OC2CN3CCC2CC3)cc1 (stereo not drawn),inactive: 25.3%
8,O=P1(Nc2ccc(Br)cn2)COc2ccccc2OC1,inactive: 9.75%
9,Nc1cccc([As](=O)(O)c2ccccc2)c1,inactive: -19.7%
10,CCOP(=O)(Nc1ccc(C)cn1)OCC,inactive: 3.86%
11,CN(CCCl)Cc1cc(Cl)c(NC2=NCCN2)c(Cl)c1,inactive: 16.6%
12,O=P1(Nc2ccccn2)COc2ccccc2OC1,inactive: 13%
13,CC(C)(C)C(=O)NC(Sc1ncccn1)C(Cl)(Cl)Cl (stereo not drawn),inactive: -9.78%
14,Clc1n[nH]nc1-c1nn[nH][15n]1,inactive: 0.87%
15,COC(=O)c1nsnc1NCCCl,inactive: 16.8%
16,O=[As](O)(c1ccccc1Br)c1ccccc1Br,inactive: 0.77%
17,CC(C)/C=N\N=C(\N)N[N+](=O)[O-],inactive: 13.4%
18,CN(C(=O)Cc1ccc(Cl)c(Cl)c1)[C@@H]1CCCC[C@H]1N1CCCC1,inactive: -6.25% and inactive: 10.4%
19,O=[As](O)(O)c1cccnc1,inactive: -18.9%
20,COc1cc(C(=O)NCC2(N3CCOCC3)CCCCC2)cc(Cl)c1OC(C)C,inactive: -0.13%
21,CN(C(=O)Cc1ccc(Cl)c(Cl)c1)[C@@H]1CC[C@]2(CCCO2)C[C@H]1N1CCCC1,inactive: 9%
22,O=C(OC1CN2CCC1CC2)c1ccc(Cl)cc1 (stereo not drawn),inactive: -1.17%
23,Cc1cccc(OCC(=O)OC2CN3CCC2CC3)c1 (stereo not drawn),inactive: 32.3%
24,O=[As](O)(c1cccc(O)c1)c1cccc(O)c1,inactive: -6.13%
25,CCCOP(=S)(Nc1nc(N)cc(=O)[nH]1)OCCC,inactive: 9.62%
26,NS(=O)(=O)Cc1ccc([As](=O)(O)O)cc1,inactive: 14.2%

row,SMILES,induction
1,Nc1cccc2c([As](=O)(O)O)cccc12,inactive: 0.27%
2,O=C(CC(=O)c1ccccc1)O[C@H]1CN2CCC1CC2,inactive: 23.5%
3,Cc1ccc(NCCc2c([N+](=O)[O-])cc([N+](=O)[O-])cc2[N+](=O)[O-])cc1,inactive: -8.32%
4,CCOP(=O)(Nc1cccc2ccccc12)OCC,inactive: -0.65%
5,COc1cc(C2NCCC3(OCCO3)C2(C)C)cc(OC)c1OC (stereo not drawn),inactive: 15.3%
6,CS(=O)(=O)c1cc([N+](=O)[O-])c2no[n+]([O-])c2c1,inactive: -19.6%
7,O=P(Nc1nccs1)(Oc1ccccc1)Oc1ccccc1,inactive: 2.42%
8,O=P(Nc1nccs1)(c1ccccc1)c1nc2ccccc2s1 (stereo not drawn),inactive: -9.87%
9,CCOP1(=S)c2c(C)nn(CCC#N)c2N=C(c2ccccc2F)N1C (stereo not drawn),inactive: -14.5%
10,Nc1ccccc1[As](=O)(O)c1ccccc1,inactive: -11.6%
11,O=C(O)COc1ccc([As](=O)(O)O)cc1[N+](=O)[O-],inactive: 31.9%
12,O=[As](O)(O)c1ccc([As](=O)(O)O)cc1,inactive: 10.1%
13,NC(=O)c1nsnc1NCCCl,inactive: -4.45%
14,NC(=O)Nc1ccc([As](=O)(O)O)cc1,inactive: 19.5%
15,O=[N+]([O-])c1ccc2c(c1)nnn2O,inactive: 14.8%
16,CCOP1(=S)c2c(C)nn(CCC#N)c2N=C(c2ccc(F)cc2)N1C (stereo not drawn),inactive: 3.28%
17,CN(C(=O)Cc1ccccc1)[C@@H]1CC[C@]2(CCCO2)C[C@H]1N1CCCC1,inactive: 16.7% and inactive: 21.3%
18,O=[As](O)(c1ccc(O)cc1)c1ccccc1O,inactive: 2.85%
19,C[As](=O)(O)c1cccc(C(=O)O)c1,inactive: 3.7%
20,Cc1ccc2nc3c(c(C)c2c1)CC(C(Cl)Cl)S3 (stereo not drawn),inactive: -1.12%
21,Cc1ccc(OP(=O)(Nc2ccc([N+](=O)[O-])cn2)Oc2ccc(C)cc2)cc1,inactive: 5.18%
22,CC(C)c1ccc(OP(=O)(Nc2ccccn2)Oc2ccccc2F)cc1 (stereo not drawn),inactive: 33.4%
23,[N-]=[N+]=NCC(N)=O,inactive: 19.1%
24,O=[As]c1ccc(S(=O)(=O)NCCO)cc1 (stereo not drawn),inactive: 0.12%
25,ClCCSc1nnc(-c2cccnc2)o1,inactive: 29.4%
26,Cc1ccc(-c2nnc3n2CC(CI)S3)cc1 (stereo not drawn),inactive: -22.4%

row,SMILES,induction
1,O=[N+]([O-])c1cc([N+](=O)[O-])c(-c2ccn[nH]2)s1,inactive: -0.99%
2,CC(C)NC(=O)NP(=O)(Oc1ccccc1)Oc1ccccc1,inactive: 12.5%
3,CCN(CC)C(=S)SC(NC=O)C(Cl)(Cl)Cl (stereo not drawn),inactive: 15%
4,Cc1cc(=O)[nH]c(N[N+](=O)[O-])n1,inactive: 35.2%
5,O=C(OC1CN2CCC1CC2)C12CC3CC(CC(C3)C1)C2 (stereo not drawn),inactive: -1.85%
6,Cc1c2c(nc3ccccc13)SC(C(Cl)Cl)C2 (stereo not drawn),inactive: -36.1%
7,COc1cc(I)ccc1[As](=O)(O)O,inactive: 6.27%
8,COc1ccc2nc(NP(=O)(c3ccccc3)c3ccccc3)sc2c1,inactive: 16.2%
9,NC(=O)Nc1cc([As](=O)(O)O)cc(I)c1O,inactive: 23.4%
10,COc1ccc(N/C(=N/P(=O)(N2CCOCC2)N2CCOCC2)N2CCOCC2)cc1,inactive: 4.07%
11,COP1(=S)c2c(C)nn(CCC#N)c2N=C(c2ccc(F)cc2)N1C (stereo not drawn),inactive: 17.7%
12,O=C(COc1ccccc1)OC1CN2CCC1CC2 (stereo not drawn),inactive: 27.1%
13,O=C(O)[C@@H](O)c1ccc([As](=O)(O)O)cc1,inactive: 19.4%
14,CCOC(=O)c1ccc(NC(=O)C(C)(CCl)SC)cc1 (stereo not drawn),inactive: -3.87%
15,CCC(C)N(CC(C)C)C(=S)SC(NC(C)=O)C(Cl)(Cl)Cl (stereo not drawn),inactive: 32.3%
16,Cc1ccc(N2C(=O)/C(=C/c3cn(CC(=O)NCc4ccco4)c4ccccc34)C(=O)NC2=S)cc1,inactive: -20.9%
17,CCOC(=O)Nc1ccc([As](=O)(O)O)c(O)c1,inactive: 5.93%
18,Cc1cc(SC(NC(=O)c2ccccc2)C(Cl)(Cl)Cl)nc(C(C)C)n1 (stereo not drawn),inactive: 29.9%
19,CCOC(=O)Nc1cccc([As](=O)(O)O)c1,inactive: 4.75%
20,O=[N+]([O-])c1ccc(Nc2ccc(Oc3ccc([N+](=O)[O-])cc3[N+](=O)[O-])cc2)c([N+](=O)[O-])c1,inactive: -4.64%
21,O=P(Nc1ccccn1)(c1cccc2ccccc12)c1cccc2ccccc12,inactive: 17%
22,Cc1cc(SC(NC=O)C(Cl)(Cl)Cl)ncn1 (stereo not drawn),inactive: 15.2%
23,O=C(Nc1cc([As](=O)(O)O)ccc1O)c1ccccc1,inactive: 21.6%
24,CC(C)(C)C(=O)NC(Sc1ccncn1)C(Cl)(Cl)Cl (stereo not drawn),inactive: -17.6%
25,O=[N+]([O-])c1ncn(CCn2ncnc2[N+](=O)[O-])n1,inactive: -4.97%
26,O=[N+]([O-])c1cccc(NC2=NCC(CBr)S2)c1 (stereo not drawn),inactive: -32.5%

row,SMILES,induction
1,O=C(O)CNc1ccc([As](=O)(O)O)cc1,inactive: 2.74%
2,COc1ccc(C2=NCC(CBr)S2)cc1 (stereo not drawn),inactive: -1.62%
3,O=[N+]([O-])c1cccc2n[nH]nc12,inactive: 1.81%
4,CC(=O)N1C2C3N(C(C)=O)C1C1N(C(C)=O)C(C(N1C(C)=O)N3C(C)=O)N2C(C)=O,inactive: 27.9%
5,CCc1nc2c(n1)c1c(non1O)c1c2no[n+]1[O-],inactive: 8.73%
6,O=[N+]([O-])c1cc([N+](=O)[O-])c(CCNc2ccccc2)c([N+](=O)[O-])c1,inactive: -19.4%
7,Cc1ccc(NP(=O)(Oc2ccccc2)Oc2ccccc2)nc1,inactive: 3.72%
8,C[N+]1=C2C=CC=CC=C2SC12C([N+](=O)[O-])=CC([N+](=O)[O-])=C[C-]2[N+](=O)[O-] (stereo not drawn),inactive: -57.3%
9,Nc1ccc([As](=O)(O)c2ccc(N)cc2)cc1,inactive: 17.4%
10,CCN(/C(=N/P(=O)(N1CCOCC1)N1CCOCC1)N1CCOCC1)c1ccc(OC)cc1,inactive: 7.46%
11,CN(C)C(=O)OCCc1n(C)cc[n+]1C,inactive: 16.5%
12,CC(C)=N/N=C(\N)N[N+](=O)[O-],inactive: -7.57%
13,O=C(CO)Nc1ccc([As](=O)(O)O)cc1,inactive: -1.61%
14,CC1CCN(C(=O)Oc2c(Cl)cc(Cl)c3cccnc23)CC1,inactive: -4.63%
15,NC(=O)c1cc([N+](=O)[O-])cc([N+](=O)[O-])c1N,inactive: 12.8%
16,Cc1ccc(N/C(=N/P(=O)(N2CCOCC2)N2CCOCC2)N2CCOCC2)cc1,inactive: 5.17%
17,Cc1ccc(OP(=O)(Nc2nccs2)Oc2ccc(C)cc2)cc1,inactive: 6.21%
18,COc1ccccc1OP(=O)(Nc1ccc(C)cn1)Oc1ccccc1OC,inactive: 6.01%
19,CCOc1ccc(/C=C2/C(=O)NC(=O)N(Cc3ccco3)C2=O)cc1,inactive: -55.4%
20,O=[N+]([O-])c1ccc(C[As](=O)(O)O)cc1,inactive: 9.42%
21,CN1CCCC(OC(=O)C(c2ccccc2)c2ccccc2)C1 (stereo not drawn),inactive: 2.31%
22,Clc1ccc(Cl)c(NC2=NCC(CBr)S2)c1 (stereo not drawn),inactive: 17.6%
23,Nc1cc(N)c2nonc2c1[N+](=O)[O-],inactive: 15.2%
24,CC(C)CC(=O)NC(Sc1ccc(Cl)cc1)C(Cl)(Cl)Cl (stereo not drawn),inactive: 15.1%
25,O=C(NC(Sc1ccncn1)C(Cl)(Cl)Cl)c1ccccc1 (stereo not drawn),inactive: 39.4%
